IC50 data for three compounds are collected here from patent publication US5948780A, “Method for treating and preventing heart failure and ventricular dilatation” (priority 1997, dated 1999).

This test has as its target T1, MMP-2 (Gelatinase A) (Homo sapiens, UniProt P08253).
T1 sequence (P08253 110-660): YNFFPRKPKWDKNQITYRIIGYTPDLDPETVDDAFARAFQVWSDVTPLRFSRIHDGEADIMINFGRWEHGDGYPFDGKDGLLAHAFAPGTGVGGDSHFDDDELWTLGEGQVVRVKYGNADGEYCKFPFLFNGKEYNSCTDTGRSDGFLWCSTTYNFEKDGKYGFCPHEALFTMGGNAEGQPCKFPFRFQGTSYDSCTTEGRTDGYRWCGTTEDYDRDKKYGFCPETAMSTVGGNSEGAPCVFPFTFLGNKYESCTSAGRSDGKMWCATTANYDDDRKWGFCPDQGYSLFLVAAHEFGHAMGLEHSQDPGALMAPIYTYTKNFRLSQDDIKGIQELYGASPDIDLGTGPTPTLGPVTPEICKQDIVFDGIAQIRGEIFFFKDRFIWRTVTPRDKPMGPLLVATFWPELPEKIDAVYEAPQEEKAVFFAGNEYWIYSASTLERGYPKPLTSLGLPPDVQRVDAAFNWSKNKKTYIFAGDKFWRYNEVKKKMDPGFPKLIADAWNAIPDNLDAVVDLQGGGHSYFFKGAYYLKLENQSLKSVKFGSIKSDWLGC
Format: biochemical. The note with it: read-out: IC50 MMP2.
Regarding `CC(C)[C@H](NS(=O)(=O)c1ccc(-c2ccc(N)cc2)cc1)C(=O)O` [(S)-2-(4'-Amino-biphenyl-4-sulfonylamino)-3-methyl-butyric acid], the IC50 (usually the concentration needed to halve the response being measured) stood at 44 nM. Take `CC(C)[C@H](NS(=O)(=O)c1ccc(-c2ccc(Br)cc2)cc1)C(=O)O` [(S)-2-(4'-Bromo-biphenyl-4-sulfonylamino)-3-methyl-butyric acid]: the half-maximal inhibitory concentration (IC50) stood at 25 nM. The value for `CC(C)[C@H](NS(=O)(=O)c1ccc(-c2ccc([N+](=O)[O-])cc2)cc1)C(=O)O` [(S)-3-Methyl-2-(4'-nitro-biphenyl-4-sulfonylamino)-butyric acid] was 13 nM.
